The results in this text go back to patent US10080744B2, “Thiazoles as modulators of RORγt” (Janssen Pharmaceutica NV, priority 2014, dated 2018).

This test concerns IL-17 production by CD4 T cells. The experiment in a line: cells. Particulars: Homo sapiens, 72 h, read-out: Human Th17 Assay, IC50. Here is the method:
The human Th17 assay tests the effect of RORγt modulatory compounds on IL-17 production by CD4 T cells under conditions which favor Th17 differentiation. Total CD4^+ T cells were isolated from the peripheral blood mononuclear cells (PBMC) of healthy donors using a CD4^+ T cell isolation kit II, following the manufacturer's instructions (Miltenyi Biotec). […] 50 μL of compound at titrated concentrations in DMSO were added into each well at final DMSO concentration at 0.2%. Cells were incubated for 1 hour, then 50 μL of Th17 cell differentiation medium was added to each well. […] Cells were cultured at 37° C. and 5% CO2 for 3 days. Supernatants were collected and the accumulated IL-17 in culture was measured by using MULTI-SPOT® Cytokine Plate following manufacture's instruction (Meso Scale Discovery). The plate was read using Sector Imager 6000, and IL-17 concentration was extrapolated from the standard curve. The IC50s were determined by GraphPad.

Each structure is given as a SMILES string.

As to `C[C@H](NS(=O)(=O)c1ccc(-c2sc(-c3nnc(CC(C)(C)C(=O)O)o3)nc2CC2CCC2)c2cnccc12)C(F)(F)F` [Example 3/17, (S)-3-(5-(4-(Cyclobutylmethyl)-5-(5-(N-(1,1,1-trifluoropropan-2-yl)sulfamoyl)isoquinolin-8-yl)thiazol-2-yl)-1,3,4-oxadiazol-2-yl)-2,2-dimethylpropanoic Acid], the 50% inhibitory concentration (IC50) was found to be 750 nM.

By IC50 is commonly meant the concentration that inhibits the measured activity by half.
